Target: recombinant SARS-Cov-2 M^pro (Severe acute respiratory syndrome coronavirus 2 (2019-nCoV) (SARS-CoV-2), UniProt P0DTD1)
Assay type: biochemical
Details: read-out: IC50 (μM), inhibition of SARS-Cov-2 M^pro; Table 4

Cc1ocnc1COc1cc(Cl)cc(-c2cc(-c3c[nH]c(=O)[nH]c3=O)cn(-c3cccnc3)c2=O)c1 [Compound 42]
IC50: 0.137 ± 0.022 µM

From patent US20240092759A1, “Non-Covalent Inhibitors of the Main Protease of SARS-CoV-2 and Methods of Use” (YALE UNIVERSITY, priority 2021, published 2024)
